These results are taken from ChEMBL document CHEMBL1131217, “Conformationally defined retinoic acid analogues. 4. Potential new agents for acute promyelocytic and juvenile myelomonocytic leukemias” (J Med Chem, 1998).

The chains behind the UniProt entries cited, without tags or fusion partners.
UniProt P11416, whole entry: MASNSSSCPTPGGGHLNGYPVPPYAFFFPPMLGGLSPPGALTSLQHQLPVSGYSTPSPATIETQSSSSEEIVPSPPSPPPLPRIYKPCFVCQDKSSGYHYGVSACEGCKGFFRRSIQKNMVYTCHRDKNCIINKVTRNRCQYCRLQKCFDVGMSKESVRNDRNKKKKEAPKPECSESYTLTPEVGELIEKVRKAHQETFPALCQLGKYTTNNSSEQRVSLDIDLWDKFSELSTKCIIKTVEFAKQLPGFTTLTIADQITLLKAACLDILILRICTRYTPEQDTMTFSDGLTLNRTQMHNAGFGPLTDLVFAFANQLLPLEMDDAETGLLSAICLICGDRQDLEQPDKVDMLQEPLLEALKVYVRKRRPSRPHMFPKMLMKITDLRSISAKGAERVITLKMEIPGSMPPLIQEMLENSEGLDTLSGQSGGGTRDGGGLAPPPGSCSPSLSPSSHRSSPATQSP

The target in this assay is Retinoic acid receptor alpha (Mus musculus, UniProt P11416). Description: Transcriptional activation in CV-1 cells expressing retinoid A receptor RAR alpha. It is filed as cell-based. The method in brief: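 CV-1 cells were transiently transfected with a plasmid for the relevant RAR subtype plus a (TREpal)2-tk-CAT reporter. Retinoids were tested over 1–1000 nM. CAT activity was the read-out. EC50 for half-maximal activation was obtained by Probit analysis of the dose–response curve.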

SMILES strings stand for the structures.

Turning to `CCC1=C(C(C)C)/C(=C/C(C)=C/C=C/C(C)=C/C(=O)O)CCC1`, the midpoint of the response, the EC50, lay at 0.033 µM.

Regarding `CCC1=C(C(C)C)/C(=C/C(C)=C/C=C/C(C)=C\C(=O)O)CCC1`, it took 0.051 µM to reach a half-maximal effect (EC50).
